Our source for the IC50 values is ChEMBL document CHEMBL2057181, “Crystal structure of phosphoethanolamine methyltransferase from Plasmodium falciparum in complex with amodiaquine” (Bioorg Med Chem Lett, 2012).

The test concerns the target T1, Phosphoethanolamine N-methyltransferase (Plasmodium falciparum, UniProt Q8IDQ9).
T1 sequence (Q8IDQ9 whole entry): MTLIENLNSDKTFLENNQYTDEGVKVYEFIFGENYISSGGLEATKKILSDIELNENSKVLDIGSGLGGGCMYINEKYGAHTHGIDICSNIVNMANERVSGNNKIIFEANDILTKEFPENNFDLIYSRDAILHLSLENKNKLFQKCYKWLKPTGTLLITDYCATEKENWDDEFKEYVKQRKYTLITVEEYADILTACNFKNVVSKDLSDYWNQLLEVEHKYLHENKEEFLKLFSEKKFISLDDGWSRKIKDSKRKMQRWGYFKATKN
As to the kind of experiment: Inhibition of Plasmodium falciparum phosphoethanolamine methyltransferase using phospethanolamine as substrate by radiochemical assay in presence of S-adenosylmethionine.

For `CCN(CC)Cc1cc(Nc2ccnc3cc(Cl)ccc23)ccc1O`, the IC50 was 1.35 mM.
